ChEMBL document CHEMBL4680180, “Discovery of 3-((dimethylamino)methyl)-4-hydroxy-4-(3-methoxyphenyl)-N-phenylpiperidine-1-carboxamide as novel potent analgesic” (2020)

Sequences of proteins named here, by UniProt entry; tags and fusion partners are left off. A change or cut given only in a name is not applied to a line headed by its entry.
UniProt P41145: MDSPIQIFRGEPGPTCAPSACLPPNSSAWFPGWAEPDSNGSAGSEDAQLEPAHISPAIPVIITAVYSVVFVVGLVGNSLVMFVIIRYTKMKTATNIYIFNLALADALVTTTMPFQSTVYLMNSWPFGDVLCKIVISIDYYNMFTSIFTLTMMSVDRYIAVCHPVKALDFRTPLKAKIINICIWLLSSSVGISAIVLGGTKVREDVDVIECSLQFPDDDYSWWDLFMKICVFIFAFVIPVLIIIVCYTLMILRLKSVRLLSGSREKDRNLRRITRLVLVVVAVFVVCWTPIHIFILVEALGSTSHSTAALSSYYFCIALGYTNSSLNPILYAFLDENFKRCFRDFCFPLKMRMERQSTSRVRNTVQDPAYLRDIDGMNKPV
UniProt P33533, whole entry, looked up: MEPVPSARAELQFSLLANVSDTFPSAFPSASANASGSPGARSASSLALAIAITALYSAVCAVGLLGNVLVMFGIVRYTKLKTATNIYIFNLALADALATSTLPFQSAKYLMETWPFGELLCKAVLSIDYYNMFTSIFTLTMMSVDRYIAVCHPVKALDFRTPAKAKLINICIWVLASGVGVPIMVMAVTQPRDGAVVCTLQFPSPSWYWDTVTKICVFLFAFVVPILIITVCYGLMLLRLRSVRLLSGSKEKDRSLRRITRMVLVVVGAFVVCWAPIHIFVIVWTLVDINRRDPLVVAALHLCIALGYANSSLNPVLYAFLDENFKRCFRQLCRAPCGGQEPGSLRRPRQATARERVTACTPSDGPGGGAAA
UniProt P33535, whole entry, looked up: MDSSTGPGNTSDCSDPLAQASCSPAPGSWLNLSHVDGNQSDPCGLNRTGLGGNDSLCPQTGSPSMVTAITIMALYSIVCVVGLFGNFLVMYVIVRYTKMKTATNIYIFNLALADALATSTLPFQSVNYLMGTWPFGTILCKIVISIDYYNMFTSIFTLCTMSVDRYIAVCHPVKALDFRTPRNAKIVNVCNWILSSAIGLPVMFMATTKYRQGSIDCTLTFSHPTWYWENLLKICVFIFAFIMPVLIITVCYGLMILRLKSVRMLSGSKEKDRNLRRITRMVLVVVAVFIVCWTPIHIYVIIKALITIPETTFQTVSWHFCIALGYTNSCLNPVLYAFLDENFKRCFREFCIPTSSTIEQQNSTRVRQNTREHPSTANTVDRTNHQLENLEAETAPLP

Tests used:
[1] = target: Kappa-type opioid receptor (Homo sapiens) (UniProt P41145); test: Displacement of [3H]-U69593 from human kappa opioid receptor expressed in CHO cells at 1 uM incubated for 30 mins by liquid scintillation counting method relative to control
[2] = target: Delta-type opioid receptor (Rattus norvegicus) (UniProt P33533); test: Displacement of [3H]-DPDPE from rat delta opioid receptor expressed in CHO cells at 1 uM incubated for 30 mins by liquid scintillation counting method relative to control
[3] = target: Mu-type opioid receptor (Rattus norvegicus) (UniProt P33535); test: Displacement of [3H]-DAMGO from rat mu opioid receptor expressed in CHO cells at 1 uM incubated for 30 mins by liquid scintillation counting method relative to control
[4] = target: Kappa-type opioid receptor (Homo sapiens) (UniProt P41145); test: Agonist activity at human kappa opioid receptor expressed in CHO cells incubated for 1 hr by [35S]GTPgammaS binding based liquid scintillation counting method relative to control
[5] = target: Delta-type opioid receptor (Rattus norvegicus) (UniProt P33533); test: Agonist activity at rat delta opioid receptor expressed in CHO cells incubated for 1 hr by [35S]GTPgammaS binding based liquid scintillation counting method relative to control
Rattus norvegicus = species: Rattus norvegicus; test: Selectivity index, ratio of Ki for rat delta opioid receptor expressed in CHO cells to rat mu opioid receptor expressed in CHO cells
[6] = Selectivity index, ratio of Ki for human kappa opioid receptor expressed in CHO cells to rat mu opioid receptor expressed in CHO cells
[7] = target: Mu-type opioid receptor (Rattus norvegicus) (UniProt P33535); test: Agonist activity at rat mu opioid receptor expressed in CHO cells incubated for 1 hr by [35S]GTPgammaS binding based liquid scintillation counting method relative to control
Mus musculus [8] = test: Antinociceptive activity in ip dosed Kunming mouse assessed as maximum possible effect by measuring latency threshold by hot plate test
Mus musculus [9] = test: Antinociceptive activity in Kunming mouse assessed as maximum possible effect by measuring latency threshold at 5 mg/kg, ip by hot plate test
Mus musculus [10] = test: Antinociceptive activity in Kunming mouse assessed as maximum possible effect by measuring latency threshold at 5 mg/kg, ip in presence of naloxone by hot plate test

Structure (SMILES)	inhibition [1] [%]	inhibition [2] [%]	inhibition [3] [%]	other results
COC(=O)c1sccc1NC(=O)N1CCC(O)(c2ccccc2)C(CN(C)C)C1 (stereo not given)	0	0	10.2	–
C[C@@H](NC(=O)[C@@H](N)Cc1ccc(O)cc1)C(=O)NCC(=O)N(C)[C@@H](Cc1ccccc1)C(=O)NCCO	–	–	–	Emax [4]: inactive; Emax [5]: inactive
COc1cccc([C@@]2(O)CCCC[C@@H]2CN(C)C)c1	0	0	6	–
CN(C)CC1CN(C(=O)Nc2cc(C(F)(F)F)cc(C(F)(F)F)c2)CCC1(O)c1ccccc1 (stereo not given)	8.6	0.9	0	–
CN(C)CC1CN(C(=O)Nc2ccccc2)CCC1(O)c1cccc(O)c1 (stereo not given)	–	–	–	Emax ([4]; filed as agonist): 197%; Ratio Ki (Rattus norvegicus): 86.3; Ratio Ki [6]: 59.5; Emax ([5]; filed as agonist): 254%; Emax ([7]; filed as agonist): 240%
CN(C)CC1CN(C(=O)NCc2ccccc2)CCC1(O)c1ccccc1 (stereo not given)	5.1	2.6	35.1	–
CN(C)CC1CN(C(=O)N(C)c2cccc(Cl)c2)CCC1(O)c1ccccc1 (stereo not given)	14	0	8.7	–
CN(C)CC1CN(C(=O)NC23CC4CC(CC(O)(C4)C2)C3)CCC1(O)c1ccccc1 (stereo not given)	0	1.9	0	–
CN(C)CC1CN(C(=O)Nc2ccc(Cl)cc2)CCC1(O)c1ccccc1 (stereo not given)	22.1	0	48.8	–
CC1(C)SSC(C)(C)[C@@H](NC(=O)[C@@H](N)Cc2ccc(O)cc2)C(=O)NCC(=O)N[C@@H](Cc2ccccc2)C(=O)N[C@H]1C(=O)O	–	–	–	Emax [4]: inactive
CN(C)CC1CN(C(=O)Nc2ccc(F)c(Cl)c2)CCC1(O)c1ccccc1 (stereo not given)	7.1	21.6	25	–
CN(C)CC1CN(C(=O)Nc2cccc(F)c2)CCC1(O)c1ccccc1 (stereo not given)	0	9.2	36.7	–
CN(C)CC1CN(C(=O)Nc2ccccc2)CCC1(O)c1ccccc1 (stereo not given)	–	–	–	Activity (Mus musculus [8]): Dose-dependent effect; Activity (Mus musculus [9]): Active; Activity (Mus musculus [10]): inactive
C[C@H](NC(=O)N1CCC(O)(c2ccccc2)C(CN(C)C)C1)c1ccccc1 (stereo not given in full)	4.1	0	20.5	–
CN(C)CC1CN(C(=O)Nc2ccc3ccccc3c2)CCC1(O)c1ccccc1 (stereo not given)	3.9	0	0.5	–
COC(=O)c1ccsc1NC(=O)N1CCC(O)(c2ccccc2)C(CN(C)C)C1 (stereo not given)	9.2	16	2.3	–
CN(C(=O)Cc1ccc(Cl)c(Cl)c1)C1CCCCC1N1CCCC1 (stereo not given)	–	–	–	Emax ([4]; filed as agonist): 200%; Emax [5]: inactive; Emax [7]: inactive
CN(C)CC1CN(C(=O)Nc2ccc(Cl)c(Cl)c2)CCC1(O)c1ccccc1 (stereo not given)	18.2	0	46	–
CN(C)CC1CN(C(=O)NC23CC4CC(CC(C4)C2)C3)CCC1(O)c1ccccc1 (stereo not given)	17.9	0	13.5	–
CN(C)CC1CN(C(=O)Nc2ccc(F)c(F)c2)CCC1(O)c1ccccc1 (stereo not given)	0	16.4	13.6	–
CN(C)C[C@H]1CCCC[C@]1(O)c1cccc(O)c1	20.2	19	–	Emax [4]: inactive; Emax [5]: inactive; Emax ([7]; filed as agonist): 226%
CN(C)CC1CN(C(=O)Nc2cc(Cl)c(Cl)c(Cl)c2)CCC1(O)c1ccccc1 (stereo not given)	0	0	13.2	–
CC(NC(=O)N1CCC(O)(c2ccccc2)C(CN(C)C)C1)C12CC3CC(CC(C3)C1)C2 (stereo not given)	10.4	0	32.8	–

Activity calls are given as the source filed them.
